Chains of the proteins cited; added tags and fusions are not shown.
UniProt Q15746, whole entry: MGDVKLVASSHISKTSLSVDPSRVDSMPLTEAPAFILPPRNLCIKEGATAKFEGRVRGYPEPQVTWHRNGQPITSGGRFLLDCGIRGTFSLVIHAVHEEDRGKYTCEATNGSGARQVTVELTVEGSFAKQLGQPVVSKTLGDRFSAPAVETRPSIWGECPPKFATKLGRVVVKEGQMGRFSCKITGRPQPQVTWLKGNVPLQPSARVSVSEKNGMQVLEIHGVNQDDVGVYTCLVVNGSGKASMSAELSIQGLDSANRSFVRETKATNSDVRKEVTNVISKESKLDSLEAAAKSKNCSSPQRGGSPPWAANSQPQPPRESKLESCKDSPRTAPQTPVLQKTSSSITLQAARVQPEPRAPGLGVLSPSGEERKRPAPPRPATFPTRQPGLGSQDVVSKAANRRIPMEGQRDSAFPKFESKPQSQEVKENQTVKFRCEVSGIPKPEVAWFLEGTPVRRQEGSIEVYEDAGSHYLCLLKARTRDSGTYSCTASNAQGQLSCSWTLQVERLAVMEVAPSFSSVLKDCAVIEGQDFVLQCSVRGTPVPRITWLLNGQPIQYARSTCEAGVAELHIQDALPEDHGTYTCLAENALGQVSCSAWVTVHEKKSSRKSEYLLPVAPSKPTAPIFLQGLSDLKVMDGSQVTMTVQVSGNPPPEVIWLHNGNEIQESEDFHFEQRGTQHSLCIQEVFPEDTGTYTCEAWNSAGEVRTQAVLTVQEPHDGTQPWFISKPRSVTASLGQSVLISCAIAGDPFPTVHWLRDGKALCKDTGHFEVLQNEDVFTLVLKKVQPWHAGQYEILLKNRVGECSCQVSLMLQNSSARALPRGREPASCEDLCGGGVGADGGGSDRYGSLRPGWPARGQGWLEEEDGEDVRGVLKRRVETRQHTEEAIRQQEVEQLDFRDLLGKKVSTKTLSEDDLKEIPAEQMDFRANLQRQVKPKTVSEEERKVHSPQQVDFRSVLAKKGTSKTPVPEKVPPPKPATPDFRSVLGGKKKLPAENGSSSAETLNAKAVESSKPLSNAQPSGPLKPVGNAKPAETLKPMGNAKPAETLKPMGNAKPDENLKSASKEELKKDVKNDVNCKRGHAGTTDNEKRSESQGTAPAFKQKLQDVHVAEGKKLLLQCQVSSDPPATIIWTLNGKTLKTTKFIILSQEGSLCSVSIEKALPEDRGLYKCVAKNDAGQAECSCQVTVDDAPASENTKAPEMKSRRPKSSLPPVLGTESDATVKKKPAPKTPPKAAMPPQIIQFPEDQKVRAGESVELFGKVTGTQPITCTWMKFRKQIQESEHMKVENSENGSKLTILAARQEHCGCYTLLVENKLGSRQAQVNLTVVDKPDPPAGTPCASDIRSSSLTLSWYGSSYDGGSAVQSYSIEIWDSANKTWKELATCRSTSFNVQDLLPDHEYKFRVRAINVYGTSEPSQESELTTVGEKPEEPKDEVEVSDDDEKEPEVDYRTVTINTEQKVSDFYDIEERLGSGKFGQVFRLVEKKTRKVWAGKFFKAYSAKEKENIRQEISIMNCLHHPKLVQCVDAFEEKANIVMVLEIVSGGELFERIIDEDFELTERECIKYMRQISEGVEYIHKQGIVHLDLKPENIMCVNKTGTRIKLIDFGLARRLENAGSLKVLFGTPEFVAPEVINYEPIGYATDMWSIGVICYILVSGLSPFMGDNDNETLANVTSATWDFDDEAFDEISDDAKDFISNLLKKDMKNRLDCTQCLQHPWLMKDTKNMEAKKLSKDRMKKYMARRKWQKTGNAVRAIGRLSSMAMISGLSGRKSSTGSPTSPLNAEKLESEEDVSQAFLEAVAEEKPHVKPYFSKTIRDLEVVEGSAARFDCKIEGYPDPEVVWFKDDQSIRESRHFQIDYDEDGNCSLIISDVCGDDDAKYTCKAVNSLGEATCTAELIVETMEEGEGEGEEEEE

In ChEMBL document CHEMBL1135387, “Synthesis and kinase inhibitory activity of 3'-(S)-epi-K-252a” (Bioorg Med Chem Lett, 2002):

Target: Myosin light chain kinase, smooth muscle (Homo sapiens, UniProt Q15746)
Assay: Inhibition of Myosin light chain kinase 1 (MLCK1)

Q: With COC(=O)[C@@]1(O)C[C@H]2O[C@]1(C)n1c3ccccc3c3c4c(c5c6ccccc6n2c5c31)C(=O)NC4 [K-252A] as the compound, how does the pIC50 read?
A: 7.66

pIC50: −log10 of the molar value.
